Results: the Kinase Knowledgebase extract (Sharma et al. 2016)

The chains behind the UniProt entries cited, without tags or fusion partners.
EGFR (human), P00533, UniProt P00533, whole entry, looked up: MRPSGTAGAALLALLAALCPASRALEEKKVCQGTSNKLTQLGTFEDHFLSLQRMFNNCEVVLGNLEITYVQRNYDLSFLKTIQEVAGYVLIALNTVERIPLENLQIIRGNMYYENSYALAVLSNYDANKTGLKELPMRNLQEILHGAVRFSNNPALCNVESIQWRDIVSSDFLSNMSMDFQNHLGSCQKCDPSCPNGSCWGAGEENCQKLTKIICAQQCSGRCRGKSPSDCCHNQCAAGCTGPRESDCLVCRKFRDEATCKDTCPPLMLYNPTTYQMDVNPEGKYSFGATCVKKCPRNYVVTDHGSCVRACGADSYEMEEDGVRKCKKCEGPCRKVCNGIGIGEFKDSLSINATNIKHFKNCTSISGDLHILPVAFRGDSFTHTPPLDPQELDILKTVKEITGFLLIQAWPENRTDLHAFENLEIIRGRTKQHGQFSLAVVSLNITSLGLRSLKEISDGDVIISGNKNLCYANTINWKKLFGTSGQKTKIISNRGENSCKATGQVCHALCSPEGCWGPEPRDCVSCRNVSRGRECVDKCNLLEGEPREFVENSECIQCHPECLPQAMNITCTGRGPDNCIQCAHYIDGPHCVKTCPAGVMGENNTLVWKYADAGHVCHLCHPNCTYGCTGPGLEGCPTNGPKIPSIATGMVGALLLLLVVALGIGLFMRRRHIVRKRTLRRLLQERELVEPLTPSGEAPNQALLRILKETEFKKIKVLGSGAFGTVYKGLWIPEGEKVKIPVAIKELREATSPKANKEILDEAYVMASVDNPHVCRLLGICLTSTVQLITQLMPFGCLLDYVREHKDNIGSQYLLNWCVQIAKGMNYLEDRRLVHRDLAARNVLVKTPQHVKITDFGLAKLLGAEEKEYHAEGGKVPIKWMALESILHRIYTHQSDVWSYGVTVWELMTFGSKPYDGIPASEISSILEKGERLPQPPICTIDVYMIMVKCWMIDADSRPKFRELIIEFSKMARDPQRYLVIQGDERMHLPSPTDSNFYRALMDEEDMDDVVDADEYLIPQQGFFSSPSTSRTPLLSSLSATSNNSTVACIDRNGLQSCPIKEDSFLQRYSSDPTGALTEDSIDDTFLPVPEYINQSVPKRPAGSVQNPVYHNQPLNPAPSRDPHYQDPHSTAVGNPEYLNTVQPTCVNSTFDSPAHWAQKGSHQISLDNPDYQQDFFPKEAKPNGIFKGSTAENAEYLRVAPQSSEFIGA
EGFR (human), P00533, UniProt P00533, whole entry T790M, looked up: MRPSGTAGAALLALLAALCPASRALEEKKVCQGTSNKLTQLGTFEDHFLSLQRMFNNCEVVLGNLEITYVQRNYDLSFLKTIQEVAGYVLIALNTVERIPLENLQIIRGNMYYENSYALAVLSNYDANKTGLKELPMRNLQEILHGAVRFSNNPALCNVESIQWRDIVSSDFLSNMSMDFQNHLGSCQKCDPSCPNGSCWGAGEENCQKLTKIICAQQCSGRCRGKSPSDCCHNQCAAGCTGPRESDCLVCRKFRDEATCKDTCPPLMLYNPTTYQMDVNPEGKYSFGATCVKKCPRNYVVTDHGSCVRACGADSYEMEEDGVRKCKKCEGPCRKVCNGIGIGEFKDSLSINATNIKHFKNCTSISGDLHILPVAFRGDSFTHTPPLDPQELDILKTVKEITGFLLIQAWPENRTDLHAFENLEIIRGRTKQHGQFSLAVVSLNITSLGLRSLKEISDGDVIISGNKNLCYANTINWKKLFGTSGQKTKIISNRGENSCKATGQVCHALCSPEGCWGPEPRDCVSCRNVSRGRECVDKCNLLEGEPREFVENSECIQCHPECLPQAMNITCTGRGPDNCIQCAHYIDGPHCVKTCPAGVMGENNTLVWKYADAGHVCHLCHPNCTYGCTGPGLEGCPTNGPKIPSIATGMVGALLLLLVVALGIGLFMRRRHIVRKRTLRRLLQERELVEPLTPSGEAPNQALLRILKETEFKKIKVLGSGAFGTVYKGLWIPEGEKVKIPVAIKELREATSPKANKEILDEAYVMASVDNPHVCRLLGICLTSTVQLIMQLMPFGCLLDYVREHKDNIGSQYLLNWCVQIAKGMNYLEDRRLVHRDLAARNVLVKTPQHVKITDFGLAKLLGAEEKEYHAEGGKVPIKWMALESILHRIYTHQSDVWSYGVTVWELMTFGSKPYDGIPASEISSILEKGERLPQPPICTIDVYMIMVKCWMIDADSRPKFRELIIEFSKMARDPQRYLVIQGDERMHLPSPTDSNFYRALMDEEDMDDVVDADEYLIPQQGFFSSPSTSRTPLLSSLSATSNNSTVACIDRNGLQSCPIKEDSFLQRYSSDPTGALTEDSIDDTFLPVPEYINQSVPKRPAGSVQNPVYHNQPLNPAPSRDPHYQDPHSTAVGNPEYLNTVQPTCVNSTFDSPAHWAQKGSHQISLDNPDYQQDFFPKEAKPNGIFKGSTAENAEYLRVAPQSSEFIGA
EGFR (Human), P00533, UniProt P00533, whole entry T790M/L858R, looked up: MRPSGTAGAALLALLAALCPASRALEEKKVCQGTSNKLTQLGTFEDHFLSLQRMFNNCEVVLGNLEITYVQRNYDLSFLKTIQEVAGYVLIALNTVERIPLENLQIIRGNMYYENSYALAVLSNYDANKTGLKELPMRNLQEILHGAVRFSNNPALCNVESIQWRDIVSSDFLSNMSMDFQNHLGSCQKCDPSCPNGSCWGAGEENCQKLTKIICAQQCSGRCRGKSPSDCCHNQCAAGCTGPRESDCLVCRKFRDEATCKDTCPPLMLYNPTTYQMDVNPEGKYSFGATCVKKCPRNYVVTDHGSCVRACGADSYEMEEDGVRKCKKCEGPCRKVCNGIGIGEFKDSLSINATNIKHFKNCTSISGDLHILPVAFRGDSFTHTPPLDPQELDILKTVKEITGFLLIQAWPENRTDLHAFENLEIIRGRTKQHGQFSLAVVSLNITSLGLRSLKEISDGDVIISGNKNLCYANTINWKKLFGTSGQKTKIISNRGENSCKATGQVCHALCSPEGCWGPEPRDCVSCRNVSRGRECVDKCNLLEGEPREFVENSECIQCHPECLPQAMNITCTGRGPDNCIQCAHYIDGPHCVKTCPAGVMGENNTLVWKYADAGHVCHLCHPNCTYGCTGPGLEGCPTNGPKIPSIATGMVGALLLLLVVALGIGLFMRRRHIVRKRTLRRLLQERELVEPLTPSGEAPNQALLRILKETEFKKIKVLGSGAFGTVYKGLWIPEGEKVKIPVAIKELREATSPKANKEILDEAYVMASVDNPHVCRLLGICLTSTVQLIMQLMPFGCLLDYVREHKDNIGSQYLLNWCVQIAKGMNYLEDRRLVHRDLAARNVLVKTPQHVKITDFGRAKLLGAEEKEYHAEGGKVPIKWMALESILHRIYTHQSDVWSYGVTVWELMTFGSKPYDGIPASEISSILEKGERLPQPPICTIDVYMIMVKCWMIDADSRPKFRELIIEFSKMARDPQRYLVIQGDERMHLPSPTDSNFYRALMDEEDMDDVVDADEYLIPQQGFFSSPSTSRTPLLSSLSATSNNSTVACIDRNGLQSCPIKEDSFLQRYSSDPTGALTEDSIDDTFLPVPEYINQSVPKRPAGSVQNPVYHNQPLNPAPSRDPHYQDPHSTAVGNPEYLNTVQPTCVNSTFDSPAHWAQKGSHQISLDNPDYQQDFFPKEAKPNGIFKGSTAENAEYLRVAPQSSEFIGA
EGFR (human), P00533, UniProt P00533, whole entry L858R, looked up: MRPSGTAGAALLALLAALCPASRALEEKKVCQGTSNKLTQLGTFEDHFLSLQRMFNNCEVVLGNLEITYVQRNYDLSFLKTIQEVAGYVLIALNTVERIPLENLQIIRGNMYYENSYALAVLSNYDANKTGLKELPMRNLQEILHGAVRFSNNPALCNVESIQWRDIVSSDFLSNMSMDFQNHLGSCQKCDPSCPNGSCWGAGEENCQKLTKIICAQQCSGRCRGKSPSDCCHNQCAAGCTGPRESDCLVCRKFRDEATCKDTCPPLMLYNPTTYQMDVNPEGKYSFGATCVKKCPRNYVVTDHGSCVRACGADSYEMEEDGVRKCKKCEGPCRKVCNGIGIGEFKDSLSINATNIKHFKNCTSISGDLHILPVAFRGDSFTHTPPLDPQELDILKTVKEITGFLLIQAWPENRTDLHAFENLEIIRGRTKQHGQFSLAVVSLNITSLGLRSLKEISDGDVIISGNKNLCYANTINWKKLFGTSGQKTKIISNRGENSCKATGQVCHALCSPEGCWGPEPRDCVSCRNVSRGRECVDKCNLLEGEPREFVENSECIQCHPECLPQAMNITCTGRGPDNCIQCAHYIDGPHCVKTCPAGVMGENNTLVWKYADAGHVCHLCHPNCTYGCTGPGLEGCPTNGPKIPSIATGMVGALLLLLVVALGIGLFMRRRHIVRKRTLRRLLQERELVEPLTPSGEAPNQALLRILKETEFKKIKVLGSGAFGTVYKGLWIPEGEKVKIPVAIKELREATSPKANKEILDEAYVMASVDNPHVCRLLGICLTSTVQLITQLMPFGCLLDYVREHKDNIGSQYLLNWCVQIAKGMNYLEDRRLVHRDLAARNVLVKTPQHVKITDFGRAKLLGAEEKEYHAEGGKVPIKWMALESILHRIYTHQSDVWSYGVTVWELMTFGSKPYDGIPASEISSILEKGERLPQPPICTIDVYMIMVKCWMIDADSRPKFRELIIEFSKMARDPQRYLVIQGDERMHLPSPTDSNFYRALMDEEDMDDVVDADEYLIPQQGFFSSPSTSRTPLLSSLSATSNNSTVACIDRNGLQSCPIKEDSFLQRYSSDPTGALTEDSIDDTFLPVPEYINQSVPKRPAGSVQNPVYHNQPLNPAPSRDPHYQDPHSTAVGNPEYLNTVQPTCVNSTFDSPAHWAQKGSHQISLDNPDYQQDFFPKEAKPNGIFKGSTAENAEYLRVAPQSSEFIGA

Key:
[1] = biological target: EGFR (human), P00533 [WT]; details: a549
[2] = biological target: EGFR (human), P00533 [T790M]
[3] = biological target: EGFR (Human), P00533 [T790M/L858R]
[4] = biological target: EGFR (human), P00533 [L858R]

Structure (SMILES) | IC50 [1] [nM] | IC50 [2] [nM] | IC50 [3] [nM] | IC50 [4] [nM]
COc1cc(Nc2ncc(Cl)c(Nc3ccccc3C(=O)C(=O)N(C)C)n2)ccc1N1CCN(C)CC1 | 740 |  |  | 
C=CC(=O)Nc1cc(Nc2ncc(Cl)c(Nc3ccccc3C(=O)C(=O)N(C)C)n2)c(OC)cc1N1CCN(C)CC1 |  | 15.8 | 15.5 | 422
